From a melting point compilation (Tetko et al.) come the findings set out here.

For orientation: melting point means the temperature, or range, at which the solid turns liquid.

As to `CCOc1nc(C(Cl)(Cl)Cl)ns1`, the melting point came to 22 °C.
